Data: US20060079453A1, “Hla binding peptides and their uses” (priority 2002, published 2006)

Key:
Test in all cases: biochemical
Assay type in all cases: binding
HLA-B*4001 = HLA-B*4001 (Homo sapiens, UniProt P01889, A65T/A93T/A95T/D138N/D98Y/E176V/E69K/N87E/Q56L/Q94N/R180L/S121R/S35A/S48T/T167S/V36M/W171L/Y33H/Y91S)
HLA-B*4402 = HLA-B*4402 (Homo sapiens, UniProt P01889, A223V/A65T/A93T/A95T/D201E/D98Y/E176V/E187L/E204Q/E69K/G107R/H137Y/K202T/L105A/L119I/N104T/N87E/Q56L/Q94N/R106L/R155S/R180D/S101N/S121R/S35A/S48T/T118I/V36M/W191S/Y140D/Y91S)
HLA-B*4002 = HLA-B*4002 (Homo sapiens, UniProt P01889, A65T/A93T/A95T/D138N/D201E/D98Y/E176V/E204Q/E69K/K202T/N87E/Q56L/Q94N/R180L/S48T/Y33H/Y91S)
HLA-B*4501 = HLA-B*4501 (Homo sapiens, UniProt P01889, A329T/A65T/A93T/A95T/C349S/D138N/D201E/D98Y/E176V/E187L/E204Q/E69K/H137Y/K202T/L119W/N87E/Q56L/Q94N/R155S/R180D/S121R/S35A/S48T/V127L/V306I/V36M/W191S/Y140L/Y33H/Y91S)
HLA-B*1801 = HLA-B*1801 (Homo sapiens, UniProt P01889, A329T/A93T/A95T/C349S/D201E/D54G/D98Y/E176V/E187T/E204Q/E69T/K202T/Q94N/R155S/R180L/S121R/V306I/Y140S/Y195H/Y33H/Y91S)

| SMILES | IC50 (HLA-B*4001) | IC50 (HLA-B*4402) | IC50 (HLA-B*4002) | IC50 (HLA-B*4501) | IC50 (HLA-B*1801) |
| --- | --- | --- | --- | --- | --- |
| CC(C)C[C@H](NC(=O)[C@H](Cc1ccc(O)cc1)NC(=O)[C@H](CCC(=O)O)NC(=O)[C@@H](N)CO)C(=O)N[C@@H](CCC(N)=O)C(=O)N[C@@H](CC(C)C)C(=O)N[C@H](C(=O)N[C@@H](Cc1ccccc1)C(=O)O)C(C)C | 0.765 µM | 0.284 µM |  |  |  |
| C[C@H](NC(=O)CNC(=O)[C@H](CCCNC(=N)N)NC(=O)[C@H](CCC(=O)O)NC(=O)[C@@H]1CCCN1)C(=O)N1CCC[C@H]1C(=O)N1CCC[C@H]1C(=O)N[C@@H](CO)C(=O)N[C@H](C(=O)N[C@@H](Cc1ccccc1)C(=O)O)[C@@H](C)O | 14.9 µM | 6.87 µM | 3.44 µM |  |  |
| CC(C)C[C@H](NC(=O)[C@@H](NC(=O)[C@H](CO)NC(=O)[C@H](CO)NC(=O)[C@H](CO)NC(=O)[C@H](CO)NC(=O)[C@H](C)NC(=O)[C@H](C)NC(=O)[C@H](CCC(=O)O)NC(=O)[C@@H](N)CCC(N)=O)[C@@H](C)O)C(=O)O | 0.049 µM | 0.056 µM | 0.047 µM |  |  |
| CC(C)C[C@H](NC(=O)CNC(=O)[C@H](CC(C)C)NC(=O)[C@H](C)NC(=O)[C@H](CCC(=O)O)NC(=O)CNC(=O)[C@H](CCCNC(=N)N)NC(=O)[C@H](C)NC(=O)[C@H](CCC(=O)O)NC(=O)[C@@H](N)CC(C)C)C(=O)O | 0.184 µM | 2.28 µM | 0.277 µM |  |  |
| CC(C)[C@H](NC(=O)[C@H](CCCCN)NC(=O)CNC(=O)CNC(=O)[C@H](CC(=O)O)NC(=O)[C@H](C)NC(=O)[C@H](Cc1c[nH]cn1)NC(=O)[C@H](Cc1ccc(O)cc1)NC(=O)[C@H](CCC(=O)O)NC(=O)[C@@H](N)[C@@H](C)O)C(=O)O | 5.25 µM | 2.91 µM |  | 1.57 µM |  |
| CC(C)C[C@H](NC(=O)[C@H](CO)NC(=O)[C@H](CCC(N)=O)NC(=O)[C@H](CS)NC(=O)[C@H](CC(=O)O)NC(=O)[C@H](CCC(=O)O)NC(=O)[C@@H](N)CO)C(=O)N[C@H](C(=O)N[C@@H](CCCNC(=N)N)C(=O)N[C@H](C(=O)N[C@H](C(=O)O)C(C)C)[C@@H](C)O)[C@@H](C)O | 4.32 µM | 0.943 µM | 0.311 µM |  |  |
| CC(C)C[C@H](NC(=O)[C@H](CC(N)=O)NC(=O)[C@H](CCC(=O)O)NC(=O)CN)C(=O)N[C@@H](CC(N)=O)C(=O)N[C@@H](CC(C)C)C(=O)N[C@@H](CO)C(=O)N[C@@H](CS)C(=O)N[C@@H](Cc1c[nH]cn1)C(=O)N[C@@H](C)C(=O)N[C@@H](C)C(=O)O | 4.56 µM | 1.91 µM |  |  | 7.84 µM |
| CC(C)C[C@H](NC(=O)[C@@H](NC(=O)[C@H](CCCCN)NC(=O)[C@@H](NC(=O)[C@H](CCCCN)NC(=O)[C@H](CCCNC(=N)N)NC(=O)[C@H](CC(C)C)NC(=O)[C@H](CCC(=O)O)NC(=O)[C@@H](NC(=O)[C@H](CCC(=O)O)NC(=O)[C@@H](N)CCCCN)[C@@H](C)O)C(C)C)C(C)C)C(=O)O |  | 7.14 µM | 1.87 µM | 12.2 µM | 9.53 µM |
| CC[C@H](C)[C@H](NC(=O)[C@H](CCC(=O)O)NC(=O)[C@@H](N)CCCCN)C(=O)N[C@@H](CC(C)C)C(=O)N[C@@H](CC(=O)O)C(=O)N[C@@H](CCC(=O)O)C(=O)N[C@@H](C)C(=O)N[C@@H](Cc1ccc(O)cc1)C(=O)N[C@H](C(=O)N[C@@H](CCSC)C(=O)N[C@@H](C)C(=O)O)C(C)C | 0.252 µM | 11.5 µM |  | 0.123 µM | 0.731 µM |
| CC(C)C[C@H](NC(=O)CNC(=O)[C@H](CC(C)C)NC(=O)[C@H](C)NC(=O)[C@H](CCC(=O)O)NC(=O)CN)C(=O)N[C@H](C(=O)NCC(=O)N[C@@H](C)C(=O)N[C@@H](CCC(N)=O)C(=O)N[C@@H](C)C(=O)O)C(C)C | 4.29 µM | 3.57 µM |  |  | 0.877 µM |
| CC[C@H](C)[C@H](NC(=O)[C@H](Cc1ccccc1)NC(=O)[C@H](CC(C)C)NC(=O)[C@H](CCC(=O)O)NC(=O)[C@@H](N)CCC(N)=O)C(=O)N[C@@H](CO)C(=O)N[C@@H](CC(N)=O)C(=O)N[C@H](C(=O)N[C@H](C(=O)O)[C@@H](C)O)[C@@H](C)CC | 6.57 µM | 2.33 µM |  |  |  |
| CC[C@H](C)[C@H](NC(=O)[C@H](CCCCN)NC(=O)[C@H](CCC(=O)O)NC(=O)[C@@H](N)CCC(=O)O)C(=O)N[C@@H](Cc1c[nH]c2ccccc12)C(=O)N[C@@H](CCC(=O)O)C(=O)N[C@@H](CCC(=O)O)C(=O)N[C@@H](CC(C)C)C(=O)N[C@@H](CO)C(=O)N[C@@H](CCSC)C(=O)N[C@@H](CC(C)C)C(=O)O | 4.98 µM | 1.86 µM |  |  | 1.64 µM |
| CC(C)C[C@H](NC(=O)[C@H](CC(C)C)NC(=O)[C@@H](NC(=O)[C@H](CCC(=O)O)NC(=O)[C@H](CCCCN)NC(=O)CNC(=O)[C@H](CCC(=O)O)NC(=O)[C@H](C)N)C(C)C)C(=O)O | 1.31 µM | 17.3 µM |  | 14.2 µM | 11.5 µM |
| CC(C)C[C@H](NC(=O)[C@@H]1CCCN1C(=O)[C@H](CCC(=O)O)NC(=O)[C@@H](NC(=O)[C@H](CC(C)C)NC(=O)[C@H](CCC(=O)O)NC(=O)[C@@H](N)[C@@H](C)O)C(C)C)C(=O)O [TELVEPL] | 14.2 µM | 8.85 µM |  |  |  |
| CC(C)C[C@H](NC(=O)[C@H](CC(=O)O)NC(=O)[C@H](CCCNC(=N)N)NC(=O)[C@H](Cc1c[nH]cn1)NC(=O)[C@@H](NC(=O)[C@H](CC(C)C)NC(=O)[C@H](CCCNC(=N)N)NC(=O)[C@@H](NC(=O)[C@H](CC(=O)O)NC(=O)[C@H](CCC(=O)O)NC(=O)[C@@H](N)CC(C)C)C(C)C)C(C)C)C(=O)O |  | 0.818 µM | 0.641 µM | 2.38 µM | 0.729 µM |
| CC[C@H](C)[C@H](NC(=O)[C@H](C)NC(=O)[C@H](C)NC(=O)[C@H](CCC(N)=O)NC(=O)[C@H](Cc1ccccc1)NC(=O)[C@H](CCC(=O)O)NC(=O)[C@@H](N)CO)C(=O)O [SEFQAAI] | 6.83 µM | 2.66 µM | 0.779 µM |  |  |
| CC(C)C[C@H](NC(=O)[C@@H](NC(=O)[C@H](CO)NC(=O)[C@H](CCC(=O)O)NC(=O)[C@@H](N)CC(C)C)C(C)C)C(=O)N[C@@H](CCCNC(=N)N)C(=O)N[C@@H](CC(N)=O)C(=O)N[C@@H](CS)C(=O)N[C@@H](CCC(N)=O)C(=O)N[C@@H](CC(=O)O)C(=O)N[C@@H](Cc1ccccc1)C(=O)O | 5.41 µM | 0.209 µM |  |  |  |
| CC(C)C[C@H](NC(=O)[C@H](CCC(=O)O)NC(=O)[C@@H](NC(=O)[C@H](CCC(=O)O)NC(=O)[C@@H](N)CCCCN)[C@@H](C)O)C(=O)N[C@@H](CCCNC(=N)N)C(=O)N[C@@H](CCCCN)C(=O)N[C@H](C(=O)N[C@@H](CCCCN)C(=O)N[C@H](C(=O)O)C(C)C)C(C)C |  | 2.94 µM |  | 1.6 µM | 11.9 µM |
| CC(C)C[C@H](NC(=O)[C@H](CC(=O)O)NC(=O)[C@@H]1CCCN1C(=O)[C@H](Cc1ccccc1)NC(=O)[C@@H](NC(=O)[C@H](CO)NC(=O)[C@@H]1CCCN1C(=O)CNC(=O)[C@H](CCC(=O)O)NC(=O)[C@@H](N)CCC(=O)O)[C@@H](C)O)C(=O)O | 0.655 µM | 0.198 µM | 0.591 µM |  |  |
| CC(C)C[C@H](NC(=O)[C@H](CC(N)=O)NC(=O)[C@H](CCC(=O)O)NC(=O)CN)C(=O)N[C@@H](CC(N)=O)C(=O)N[C@@H](CC(C)C)C(=O)N[C@@H](CO)C(=O)N[C@@H](CS)C(=O)N[C@@H](Cc1c[nH]cn1)C(=O)N[C@@H](C)C(=O)O |  | 8.61 µM |  | 0.271 µM | 14.4 µM |
